The labels stand for the following.
B1: Replication factor A protein 1 (Saccharomyces cerevisiae), P22336 (parent)
chain: MSSVQLSRGDFHSIFTNKQRYDNPTGGVYQVYNTRKSDGANSNRKNLIMISDGIYHMKALLRNQAASKFQSMELQRGDIIRVIIAEPAIVRERKKYVLLVDDFELVQSRADMVNQTSTFLDNYFSEHPNETLKDEDITDSGNVANQTNASNAGVPDMLHSNSNLNANERKFANENPNSQKTRPIFAIEQLSPYQNVWTIKARVSYKGEIKTWHNQRGDGKLFNVNFLDTSGEIRATAFNDFATKFNEILQEGKVYYVSKAKLQPAKPQFTNLTHPYELNLDRDTVIEECFDESNVPKTHFNFIKLDAIQNQEVNSNVDVLGIIQTINPHFELTSRAGKKFDRRDITIVDDSGFSISVGLWNQQALDFNLPEGSVAAIKGVRVTDFGGKSLSMGFSSTLIPNPEIPEAYALKGWYDSKGRNANFITLKQEPGMGGQSAASLTKFIAQRITIARAQAENLGRSEKGDFFSVKAAISFLKVDNFAYPACSNENCNKKVLEQPDGTWRCEKCDTNNARPNWRYILTISIIDETNQLWLTLFDDQAKQLLGVDANTLMSLKEEDPNEFTKITQSIQMNEYDFRIRAREDTYNDQSRIRYTVANLHSLNYRAEADYLADELSKALLA
partner: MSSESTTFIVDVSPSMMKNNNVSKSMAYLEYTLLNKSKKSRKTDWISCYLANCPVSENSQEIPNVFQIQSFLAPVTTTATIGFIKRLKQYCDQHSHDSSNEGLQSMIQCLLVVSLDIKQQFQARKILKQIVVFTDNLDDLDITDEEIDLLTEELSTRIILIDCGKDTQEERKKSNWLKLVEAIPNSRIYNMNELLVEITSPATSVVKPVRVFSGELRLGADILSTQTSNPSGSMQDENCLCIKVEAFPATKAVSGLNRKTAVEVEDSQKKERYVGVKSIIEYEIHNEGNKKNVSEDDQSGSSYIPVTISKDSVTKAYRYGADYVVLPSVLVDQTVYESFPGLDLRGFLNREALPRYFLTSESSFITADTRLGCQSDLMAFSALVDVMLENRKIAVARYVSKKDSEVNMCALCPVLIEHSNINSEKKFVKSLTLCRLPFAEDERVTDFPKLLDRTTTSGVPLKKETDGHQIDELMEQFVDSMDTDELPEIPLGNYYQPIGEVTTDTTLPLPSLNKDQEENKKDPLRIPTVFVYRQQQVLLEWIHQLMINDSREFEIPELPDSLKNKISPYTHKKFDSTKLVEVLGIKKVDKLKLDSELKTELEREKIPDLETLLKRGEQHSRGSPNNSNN

From IntAct's records for PubMed 22354040 come the findings set out here.

The variants in this assay derive from B1. The settings on record: with ku80_yeast YKU80, Q04437.
Turning to D228Y, the “effect of a mutation on the interaction” value is “decreasing interaction”.
